EC50 data for two compounds are collected here from ChEMBL document CHEMBL1142853, “SAR of psilocybin analogs: discovery of a selective 5-HT 2C agonist” (Bioorg Med Chem Lett, 2005).

The chains behind the UniProt entries cited, without tags or fusion partners.
UniProt P41595, whole entry: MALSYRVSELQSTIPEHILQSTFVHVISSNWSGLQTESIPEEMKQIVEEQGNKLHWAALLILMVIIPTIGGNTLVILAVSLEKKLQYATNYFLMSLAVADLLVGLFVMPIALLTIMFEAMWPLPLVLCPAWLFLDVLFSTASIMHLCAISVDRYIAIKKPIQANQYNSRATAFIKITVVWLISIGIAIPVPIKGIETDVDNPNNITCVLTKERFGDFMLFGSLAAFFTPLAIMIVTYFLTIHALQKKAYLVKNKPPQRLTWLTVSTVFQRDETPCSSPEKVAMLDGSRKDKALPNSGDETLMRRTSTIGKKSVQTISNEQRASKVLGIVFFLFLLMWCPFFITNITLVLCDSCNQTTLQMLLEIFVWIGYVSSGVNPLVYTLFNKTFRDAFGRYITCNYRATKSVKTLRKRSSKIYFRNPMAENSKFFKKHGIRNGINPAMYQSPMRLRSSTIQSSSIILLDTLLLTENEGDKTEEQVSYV

pEC50: −log10 of the molar value.

In this assay the target is 5-hydroxytryptamine receptor 2B (Homo sapiens, UniProt P41595). The experiment in a line: Effective concentration required for accumulation of [3H]inositol phosphate in cells transiently expressing human 5-hydroxytryptamine 2B receptor determined by phosphoinositide hydrolysis assay. The format is functional.

As usually defined, the pEC50 is −log10 of the EC50, conventionally taken in molar units. Low readings indicate a large EC50, high ones a small EC50.

As to `CN(C)CCc1c[nH]c2cccc(O)c12` [PSILOCIN], the pEC50 was 7.24. For `CN(C)CCc1c[nH]c2cccc(OP(=O)(O)O)c12` [PSILOCYBIN] the value was 7.13.
